The data set in a line: Solubility in water. In kind it is physicochemical.

Turning to “trans-4-[4-amino-5-(7-methoxy-1H-indol-2-yl)imidazo[5,1-f][1,2,4]triazin-7-yl]cyclohexane carboxylic acid calcium salt [Example 2]”, the solubility in water was less than 1 mg/mL.

The values above are taken from patent publication US8557814B2, “mTOR inhibitor salt forms” (OSI Pharmaceuticals, LLC, priority 2008, dated 2013).
